Series [1] can be described thus: Dissociation constant, pKa of the compound at pH 4.6 to 11.1 by spectrophotometry.
Series [2] can be described thus: Permeability of the compound at 100 uM after 3 to 6 hrs by PAMPA assay.
The subject of series [3] is SH-SY5Y. Put plainly: Cytotoxicity against human SH-SY5Y cells assessed as reduction in cell viability up to 800 uM after 24 hrs by MTS assay. Background: Tetrazolium assays rely on reduction of a dye to a coloured formazan, in cell work by metabolically active cells.
Series [4] can be described thus: Dissociation constant, pKa of the compound at pH 4.6 to 9.2 by spectrophotometry.
Series [5] deals with SH-SY5Y. Put plainly: Cytotoxicity against human SH-SY5Y cells assessed as reduction in cell viability after 24 hrs by MTS assay.
A short description of series [6]: Dissociation constant, pKa of the compound at pH 4.6 to 10.3 by spectrophotometry.
Series [7] in a line: Dissociation constant, pKa of the compound at pH 6 to 9.5 by spectrophotometry.

In series [1], `NC(=O)c1cc[n+](CCC[n+]2ccc(/C=N/O)c(Cl)c2)cc1.[Br-].[Br-]` returned a pKa of 7.57. Moreover, the permeability in series [2] was 1.4 ×10⁻⁶ cm/s. Moreover, the Activity entry in the series on SH-SY5Y [3] is “Non-Toxic”.

Consider `NC(=O)c1cc[n+](C/C=C/C[n+]2cc(Cl)c(/C=N/O)c(Cl)c2)cc1.[Br-].[Br-]`, for which the pKa in series [4] worked out at 7.55. Moreover, the permeability in series [2] came out at 2.21 ×10⁻⁶ cm/s.

Take `NC(=O)c1cc[n+](CCC[n+]2ccc(/C=N/O)cc2)cc1.[Br-].[Br-]`: the permeability in series [2] is 0.33 ×10⁻⁶ cm/s. In addition, in the series on SH-SY5Y [3], the Activity result is listed as “Non-Toxic”.

Turning to `NC(=O)c1cc[n+](C/C=C/C[n+]2cc(Cl)c(/C=N/O)c(Cl)c2)cc1`, in the series on SH-SY5Y [5], the IC50 was found to be 30 µM.

In series [6], `NC(=O)c1cc[n+](CCC[n+]2cc(Cl)c(/C=N/O)c(Cl)c2)cc1.[Br-].[Br-]` had a pKa of 7.53. Moreover, in series [2], the permeability worked out at 1.73 ×10⁻⁶ cm/s. In addition, in the series on SH-SY5Y [3], the Activity entry is recorded as “Non-Toxic”.

`NC(=O)c1cc[n+](C/C=C/C[n+]2ccc(/C=N/O)cc2)cc1.[Br-].[Br-]` displayed a permeability in series [2] of 0.45 ×10⁻⁶ cm/s. For the same molecule, the Activity entry in the series with SH-SY5Y [3] was “Non-Toxic”.

For `Cl.NC(=O)c1cc[n+](COCN2C=CC=CC2=CN=O)cc1.[Cl-]`, in the series on SH-SY5Y [3], the Activity entry is given as “Non-Toxic”.

On to `NC(=O)c1cc[n+](CCCC[n+]2ccc(/C=N/O)c(Cl)c2)cc1.[Br-].[Br-]`, for which the pKa in series [6] came to 7.68. The same molecule showed a permeability in series [2] of 1 ×10⁻⁶ cm/s. Moreover, the Activity entry in the series on SH-SY5Y [3] is listed as “Non-Toxic”.

In series [6], `NC(=O)c1cc[n+](CCCC[n+]2cc(Cl)c(/C=N/O)c(Cl)c2)cc1.[Br-].[Br-]` had a pKa of 7.66. Further, the permeability in series [2] came out at 1.4 ×10⁻⁶ cm/s. The Activity entry in the series on SH-SY5Y [3] was “Non-Toxic”.

With `NC(=O)c1cc[n+](C/C=C/C[n+]2ccc(/C=N/O)c(Cl)c2)cc1.[Br-].[Br-]`, in series [4], the pKa worked out at 7.6. Also, the permeability in series [2] stood at 2.6 ×10⁻⁶ cm/s.

Molecule `C[n+]1ccccc1/C=N/O.[I-]` gave a permeability in series [2] of 0.36 ×10⁻⁶ cm/s. Moreover, the Activity entry with SH-SY5Y [3] was “Non-Toxic”.

The molecule `NC(=O)c1cc[n+](CCCC[n+]2ccc(/C=N/O)cc2)cc1.[Br-].[Br-]` gave a permeability in series [2] of 0.34 ×10⁻⁶ cm/s. The molecule further registered a pKa in series [7] of 8.44. In addition, the Activity result with SH-SY5Y [3] is “Non-Toxic”.

In general, pKa refers to the pH at which an ionisable group is half protonated. The low end stands for a group that gives up its proton readily, the high end for a group that holds its proton tightly. In general, IC50 refers to the midpoint of a concentration-inhibition curve.

(Values after ChEMBL document CHEMBL4257577.)
